## Yeast mating assay B: variants of the scFv Ab-14

The target is the same throughout: PDVDLGDISGINAS, from the HR2 region of SARS-CoV-2 spike.

The variants keep the heavy chain, the linker and the frameworks of Ab-14 (scFv order VH, the linker GGGGSGGGGSGGGGS, VL).
VH: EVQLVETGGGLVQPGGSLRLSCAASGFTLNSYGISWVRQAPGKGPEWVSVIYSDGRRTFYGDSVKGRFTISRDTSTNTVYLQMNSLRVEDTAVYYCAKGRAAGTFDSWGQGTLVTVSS
VL: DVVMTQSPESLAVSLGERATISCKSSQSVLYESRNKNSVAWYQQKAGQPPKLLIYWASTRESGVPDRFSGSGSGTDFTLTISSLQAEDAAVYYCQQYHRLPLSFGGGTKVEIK

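Phage display of a naive human antibody library on the peptide gave the parent. These sequences belong to a second round, designed from the earlier measurements on random variants of the parent. Their group label is 14L_En_HC (En: ensemble of fine-tuned language models; HC: hill climbing; a sequence that several methods proposed may carry one label only). AlphaSeq pools MATa yeast showing the antibodies with MATalpha yeast showing the peptide. Binding brings cells together so that they mate, and sequencing counts the barcode pairs among the diploids. Scores were corrected for input abundance and mapped to Kd with protein pairs of known affinity run in the same pool. The assay was run in six technical replicates.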

The parent's light chain CDRs are KSSQSVLYESRNKNSVA, WASTRES, QQYHRLPLS; each variant's own CDRs replace them letter for letter.
Scale: log10 of Kd in nM, estimated from mating counts; low values are strong binders.
A pair that was not seen in that replicate is written "nd"; this usually means weak binding, but a binder can also be missed.
Values of this round are not directly comparable with the first-round values of the same sequences.
Nonspecific signal, from three strains lacking the peptide, appeared in 4% of pairings of all light chain designs, centred on 2.64 (5% of these signals below 1.59); values are not corrected for it. The control count says in how many pairings with the empty strains this scFv gave a signal.
The authors' rule: three or more of the six replicates give a measured affinity, fewer mean a poor binder.

Variant TLSGPMLSESKNKNSVA | EFSTRGS | QQYHRLPLS showed 1.29, 0.89, 1.32, 0.69, 1.18, 1.66 (controls 0 of 18).
Variant TISQSMLYLSNLKNSVA | QAETREA | QQYHRLPIS showed 0.66, 0.21, 0.30, 0.14, 0.23, 0.44 (controls 0 of 18).
Variant TIGQSQHETSRNKNSVA | HASTRED | QQYDRLPLS showed 0.60, 0.44, 0.36, 0.52, 0.13, 0.71 (controls 1 of 18).
Variant MISDLTMYGSRNVNSVA | DLSDRGS | QQYDRLPLS showed 1.12, 1.08, 0.73, 1.15, 0.81, 1.15 (controls 0 of 18).
Variant HISYSMQHLSKNKNSVA | NQQTRES | QQYHMLPLS showed 1.61, 0.74, 1.28, 1.20, 1.34, 1.15 (controls 1 of 18).
Variant TLTQSMLMESHNKNSVA | DLSTRGS | QQYHRLPLS showed -0.03, -0.22, -0.35, -0.45, -0.33, -0.08 (controls 2 of 18).
Variant TLGQVTMQLSVNKNSVA | DANTSED | QQYDRLPLS showed nd, nd, nd, nd, nd, nd (controls 0 of 18).
Variant HVSEMIFAQMKMRNSVA | ENNTREA | QQYDRLPLS showed 2.09, nd, nd, nd, nd, 2.41 (controls 1 of 18).
Variant TIGQSTLMESTNRNNVA | QMSTREK | QQYDRLPLS showed 0.51, 0.80, 0.77, 0.25, 0.56, 0.86 (controls 1 of 18).
Variant KLSQFYRMESRNKNSVA | DNSTRES | QDYDRLPLS showed nd, nd, nd, nd, nd, nd (controls 3 of 18).
Variant KVSQSVMLLQRNKNSVA | DNSTSGS | QQYHRLPLS showed nd, nd, nd, nd, 3.74, 2.95 (controls 2 of 18).
Variant TISQSMYWESRNKNSVA | QTSTREE | QDYDRLPLS showed 1.30, 1.58, 2.15, 2.26, 1.67, 1.62 (controls 1 of 18).
Variant KIMQSLNYESFMKNSVA | GQETRES | QSYHRLPLS showed 1.40, 1.48, 1.05, 1.95, 1.74, 1.32 (controls 3 of 18).
Variant HFSQVTMYGYWNTNSVA | QTSTREE | QQYDRLPLS showed 1.54, 0.51, 1.14, 1.07, 0.35, 1.61 (controls 0 of 18).
Variant KLTMMYQHTSRNKNNIA | ERSTREE | QQYHNLPLS showed -0.39, 0.07, -0.53, -0.55, 0.23, 0.09 (controls 0 of 18).
Variant IFSQSVLMGNLTKNSVA | QASTRFP | QQYHRLPLI showed 1.60, 1.25, 0.85, 1.22, 1.09, 0.98 (controls 0 of 18).
Variant KIGGVTNGISRSKNSVA | EQNTRED | QQYDRLPLS showed 0.75, 1.38, 0.94, 0.92, 0.84, 0.92 (controls 1 of 18).
Variant MAYGGDMMQSVARNSVA | NAETRAD | QDYHRLPLS showed 0.62, 0.81, 0.82, 0.57, 0.55, 0.74 (controls 2 of 18).
Variant KLSQVTHSESRNKNSIA | EMVTREE | QQYDRLPLS showed nd, nd, 1.49, 3.31, 0.00, nd (controls 0 of 18).
Variant TLGQVTMVESYNKNSVA | QASTRLE | QDYHRLPLS showed 1.67, nd, nd, 2.51, nd, nd (controls 0 of 18).
Variant MFSQLIMYGSRNYNSVA | QASTRES | QQYDRLPLI showed nd, 1.10, 1.40, nd, 2.20, nd (controls 0 of 18).
Variant KLRQLTHIESFNKNNVA | EMTTREE | QSYDRLPLS showed 1.51, 0.68, 1.14, 0.97, 1.15, 1.27 (controls 1 of 18).
Variant KLYFNVGTMAHNTQNIA | DMERRED | QQYHRLPLS showed 0.89, 0.48, 0.28, 0.00, 0.05, 0.37 (controls 0 of 18).
Variant TLSHSTDLETVHKNSIA | DLMTRES | QQYHRLPLS showed 0.15, 0.78, 0.73, 0.59, 0.48, 0.53 (controls 0 of 18).
Variant TLGMVTMQLSVNKNSVA | DANTSED | QQYDRLPLS showed nd, nd, 1.56, nd, nd, nd (controls 0 of 18).
Variant MISDLTTYGSRNKNSVA | DLSTRGS | QQYHRLPLS showed -0.18, -0.14, 0.02, 0.01, -0.43, -0.09 (controls 0 of 18).
Variant KLSEIAHFESKKKNSVA | ENSTREE | QQYDHLPLS showed nd, nd, nd, nd, 3.89, 2.01 (controls 0 of 18).
Variant KLYSSMGYLSHNKNSIA | DMSRREN | QQYHRLPLS showed 0.32, 0.17, 0.28, 0.15, 0.32, 0.26 (controls 2 of 18).
Variant HSSPSVLYESRNKNSVA | NASTRES | QQYHRLPLS showed 0.27, 0.18, -0.05, -0.08, 0.11, 0.16 (controls 1 of 18).
Variant KISQMSTIESITHNSVA | QTSTREK | QQYDRLPLS showed 0.80, 0.86, 0.67, 0.38, 1.39, 0.63 (controls 1 of 18).
Variant TLTQSVGMETHNKNSVA | DLSTRGS | QQYHRLPLS showed 0.41, 0.19, 0.08, 0.07, 0.14, 0.37 (controls 2 of 18).

Excerpt, the final 2 entries:

| CDR-L1 | CDR-L2 | CDR-L3 | log10 Kd (nM) by replicate | signal with controls |
|---|---|---|---|---|
| KISQMSTIESITHNSVA | QTSTREK | QQYDRLPLS | 0.80, 0.86, 0.67, 0.38, 1.39, 0.63 | 1 of 18 |
| TLTQSVGMETHNKNSVA | DLSTRGS | QQYHRLPLS | 0.41, 0.19, 0.08, 0.07, 0.14, 0.37 | 2 of 18 |

Reference: Li et al. 2023, doi:10.1038/s41467-023-39022-2. File: FLAb, binding data.